The values that follow come from US20220242846A1, “ISOINDOLINONE COMPOUNDS” (Monte Rosa Therapeutics AG, priority 2019, published 2022).

Amino acid sequences for entries named in this document (tags omitted). Residues count along the entry.
UniProt P15170, whole entry: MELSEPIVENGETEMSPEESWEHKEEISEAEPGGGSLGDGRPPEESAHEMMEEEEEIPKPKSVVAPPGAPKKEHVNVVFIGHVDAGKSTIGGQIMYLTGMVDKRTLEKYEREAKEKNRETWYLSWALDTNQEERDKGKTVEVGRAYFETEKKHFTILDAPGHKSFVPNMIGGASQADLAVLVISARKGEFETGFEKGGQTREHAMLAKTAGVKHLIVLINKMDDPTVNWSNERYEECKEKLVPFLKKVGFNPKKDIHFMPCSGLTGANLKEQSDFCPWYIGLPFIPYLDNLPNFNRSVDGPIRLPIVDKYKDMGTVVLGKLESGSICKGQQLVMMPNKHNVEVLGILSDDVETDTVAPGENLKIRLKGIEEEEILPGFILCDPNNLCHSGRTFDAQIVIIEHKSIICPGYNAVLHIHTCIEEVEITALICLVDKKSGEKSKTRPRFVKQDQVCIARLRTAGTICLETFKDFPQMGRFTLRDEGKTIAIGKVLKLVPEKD
UniProt Q96SW2, whole entry: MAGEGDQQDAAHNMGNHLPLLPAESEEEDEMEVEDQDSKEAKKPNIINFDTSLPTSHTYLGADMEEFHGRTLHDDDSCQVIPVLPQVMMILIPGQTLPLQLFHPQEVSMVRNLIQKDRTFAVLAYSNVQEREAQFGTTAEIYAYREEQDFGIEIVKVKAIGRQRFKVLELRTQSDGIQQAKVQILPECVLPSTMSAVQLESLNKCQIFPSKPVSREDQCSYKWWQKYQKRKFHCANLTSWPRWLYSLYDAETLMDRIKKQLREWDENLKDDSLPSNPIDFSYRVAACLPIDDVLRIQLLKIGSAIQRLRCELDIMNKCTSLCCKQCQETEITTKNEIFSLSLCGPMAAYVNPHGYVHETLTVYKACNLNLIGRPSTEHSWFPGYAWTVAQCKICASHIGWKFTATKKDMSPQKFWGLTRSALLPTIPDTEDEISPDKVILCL
UniProt Q9UKT9, whole entry: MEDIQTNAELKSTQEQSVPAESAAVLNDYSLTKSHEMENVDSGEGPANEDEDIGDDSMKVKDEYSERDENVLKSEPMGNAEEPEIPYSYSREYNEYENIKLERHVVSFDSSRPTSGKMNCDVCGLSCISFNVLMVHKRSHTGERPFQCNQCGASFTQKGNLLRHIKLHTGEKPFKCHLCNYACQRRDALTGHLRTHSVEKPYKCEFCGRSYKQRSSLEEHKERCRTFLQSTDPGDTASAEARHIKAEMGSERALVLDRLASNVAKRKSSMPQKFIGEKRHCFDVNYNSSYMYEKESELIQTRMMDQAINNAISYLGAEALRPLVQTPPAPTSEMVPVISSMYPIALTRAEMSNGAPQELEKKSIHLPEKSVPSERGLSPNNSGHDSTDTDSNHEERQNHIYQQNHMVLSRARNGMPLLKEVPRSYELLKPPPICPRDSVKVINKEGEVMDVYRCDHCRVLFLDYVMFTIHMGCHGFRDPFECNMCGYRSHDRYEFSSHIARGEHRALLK
UniProt Q96JP5, 2-570 limits assumed: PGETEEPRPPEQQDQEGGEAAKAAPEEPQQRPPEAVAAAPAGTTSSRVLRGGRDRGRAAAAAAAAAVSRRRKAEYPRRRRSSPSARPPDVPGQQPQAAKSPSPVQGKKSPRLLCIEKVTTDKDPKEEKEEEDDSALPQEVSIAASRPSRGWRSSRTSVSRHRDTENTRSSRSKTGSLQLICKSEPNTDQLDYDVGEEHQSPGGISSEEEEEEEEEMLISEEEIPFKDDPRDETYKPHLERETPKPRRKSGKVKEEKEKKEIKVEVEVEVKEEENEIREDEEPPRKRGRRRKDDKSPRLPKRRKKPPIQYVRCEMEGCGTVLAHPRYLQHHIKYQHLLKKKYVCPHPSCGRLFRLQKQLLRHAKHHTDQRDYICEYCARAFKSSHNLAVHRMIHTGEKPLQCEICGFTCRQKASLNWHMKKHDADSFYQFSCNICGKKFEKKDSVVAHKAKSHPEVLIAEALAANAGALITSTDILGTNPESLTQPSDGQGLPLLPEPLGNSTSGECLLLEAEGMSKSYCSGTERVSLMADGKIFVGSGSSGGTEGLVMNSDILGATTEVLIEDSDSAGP
UniProt P48729, whole entry: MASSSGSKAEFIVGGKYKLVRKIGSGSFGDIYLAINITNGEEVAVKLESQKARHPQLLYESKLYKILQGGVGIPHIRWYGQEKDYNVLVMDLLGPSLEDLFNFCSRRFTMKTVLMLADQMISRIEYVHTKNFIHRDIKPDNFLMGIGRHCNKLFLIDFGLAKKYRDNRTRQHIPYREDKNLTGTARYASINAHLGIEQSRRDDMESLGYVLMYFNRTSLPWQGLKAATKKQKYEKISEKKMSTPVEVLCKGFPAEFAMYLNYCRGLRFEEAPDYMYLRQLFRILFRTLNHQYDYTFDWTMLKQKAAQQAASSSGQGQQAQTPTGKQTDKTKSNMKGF
UniProt Q13422, whole entry: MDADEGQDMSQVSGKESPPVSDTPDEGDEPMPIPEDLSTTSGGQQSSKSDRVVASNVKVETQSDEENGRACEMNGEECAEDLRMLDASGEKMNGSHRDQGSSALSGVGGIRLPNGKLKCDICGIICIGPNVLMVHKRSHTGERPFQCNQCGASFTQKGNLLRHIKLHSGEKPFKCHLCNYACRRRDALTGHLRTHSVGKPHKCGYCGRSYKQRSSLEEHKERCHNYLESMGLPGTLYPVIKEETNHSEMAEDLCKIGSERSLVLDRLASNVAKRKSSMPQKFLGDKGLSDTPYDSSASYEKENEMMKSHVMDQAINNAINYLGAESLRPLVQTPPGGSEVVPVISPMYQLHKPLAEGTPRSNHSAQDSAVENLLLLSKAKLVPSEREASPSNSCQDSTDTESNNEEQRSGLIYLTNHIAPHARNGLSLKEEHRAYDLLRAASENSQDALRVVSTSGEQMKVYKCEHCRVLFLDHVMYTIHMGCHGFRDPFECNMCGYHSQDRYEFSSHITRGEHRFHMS
UniProt Q16531, 2-1140 partner limits assumed: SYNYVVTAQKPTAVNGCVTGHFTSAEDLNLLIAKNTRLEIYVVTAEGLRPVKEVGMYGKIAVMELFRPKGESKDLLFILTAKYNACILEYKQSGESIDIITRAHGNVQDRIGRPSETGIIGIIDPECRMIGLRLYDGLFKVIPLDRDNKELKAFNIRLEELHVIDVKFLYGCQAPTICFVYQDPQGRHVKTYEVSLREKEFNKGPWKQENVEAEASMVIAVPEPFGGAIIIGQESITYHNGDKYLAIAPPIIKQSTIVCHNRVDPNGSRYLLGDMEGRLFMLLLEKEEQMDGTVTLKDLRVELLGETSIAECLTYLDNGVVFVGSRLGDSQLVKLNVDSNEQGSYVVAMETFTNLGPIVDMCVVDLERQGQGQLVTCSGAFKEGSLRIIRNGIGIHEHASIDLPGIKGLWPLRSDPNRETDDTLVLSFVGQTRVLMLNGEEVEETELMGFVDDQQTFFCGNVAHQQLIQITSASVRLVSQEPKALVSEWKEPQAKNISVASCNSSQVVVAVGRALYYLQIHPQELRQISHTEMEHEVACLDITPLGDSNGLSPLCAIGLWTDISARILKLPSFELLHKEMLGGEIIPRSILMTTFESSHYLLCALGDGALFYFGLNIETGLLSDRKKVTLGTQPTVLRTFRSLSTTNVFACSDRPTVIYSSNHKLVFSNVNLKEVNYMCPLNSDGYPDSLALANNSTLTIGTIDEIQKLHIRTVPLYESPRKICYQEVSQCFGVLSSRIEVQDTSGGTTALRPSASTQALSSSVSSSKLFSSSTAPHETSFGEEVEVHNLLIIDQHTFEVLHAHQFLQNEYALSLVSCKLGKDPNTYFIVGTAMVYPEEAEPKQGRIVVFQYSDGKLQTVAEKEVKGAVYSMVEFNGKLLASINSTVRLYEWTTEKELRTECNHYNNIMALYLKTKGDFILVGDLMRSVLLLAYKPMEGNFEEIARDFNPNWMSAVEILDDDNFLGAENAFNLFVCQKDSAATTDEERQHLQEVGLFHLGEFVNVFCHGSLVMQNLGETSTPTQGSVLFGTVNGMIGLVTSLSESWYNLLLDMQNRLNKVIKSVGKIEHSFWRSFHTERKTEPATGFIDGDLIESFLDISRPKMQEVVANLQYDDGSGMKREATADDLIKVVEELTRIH

The structures appear in SMILES notation.

The target of test [1] is T1, GSPT1 (Homo sapiens, UniProt P15170+Q96SW2). The test can be described thus: Immunofluorescence assay for GSPT1 degradation in CAL-51 cells. It is filed as cell-based. The following applies: read-out: Code: activity for GSPT1 degradation (DC50), compound treatment 6 hours. The method, then: CAL-51 cells were purchased from DSMZ (cat. Number ACC302), sub-cultured in 90% Dulbecco's MEM (4.5 g/L glucose, Gibco 11965) +10% heat inactivated FBS (BioConcept, 2-01F136I) and incubated at 37° C., 5% CO2. For the assay, imaging microtiterplate Cell Carrier 96 Ultra (Perkin Elmer 6055302) were pre-coated with Fibronectin (Sigma F085, 300 at 0.2 μg/ml) in PBS (1000, Gibco 14190) for 45 min at room temperature, rinsed with PBS and CAL-51 cells (30K cells/well) were plated and let to adhere overnight. Cells were treated with compounds typically using a serial dilution ranging from 30 μM to 0.1 nM for 6 hours. Compounds were stored at 10 mM DMSO stocks. Vehicle (DMSO), positive (CC-885, 10 μM) and rescue controls (positive control plus 0.2 μM bortezomib) were also included at this stage. Cells were subsequently rinsed with PBS and fixed in 10% Formalin solution (50 μl, Sigma HT5011)) for 20 mins at room temperature. Following three consecutive PBS washes (100 μl), cells were permeabilized in 0.1% Triton X-100 in PBS (Sigma 93443, 50 μl) for 15 mins at room temperature. Following three further PBS washes, 50 μl blocking buffer (1% BSA, Sigma A4503, in PBS) was added for 45 min for signal-to-noise reduction. Primary antibody (human GSPT1, Sigma HPA052488) was diluted in blocking buffer (dil. 1/300, 35 μl/well) and incubated with the cells overnight at 4° C. […] Fluorescence intensity of Alexa-Fluor 488 (GSPT1), Alexa-Fluor 647 (Actin) and DAPI (Nucleus) were measured. […] The outline of the cells was determined analogously from the sum of the normalized, smoothed DAPI and Actin channel, starting from each nucleus. The Alexa-Fluor 488 (GSPT1) signal intensity in each cell was finally measured, in order to obtain a Mean intensity per cell. GSPT1 degradation (DC50) was calculated after normalization to controls and data import in CDD vault Database, using non-linear regression. […]

The target of test [2] is Full length wild-type cereblon CRBN (Homo sapiens, UniProt Q96SW2). Put plainly: Fluorescence polarization (FP) assay indicating cereblon binding. The conditions noted are these: read-out: rFP IC50; CRBN 80.0 nM, fluorescent probe 5 nM, FP measured after 12 hours.
The target in the next test is IKZF3 (Homo sapiens, UniProt Q9UKT9). The test can be described thus: Selectivity determination by Western Blot assay in MM1S cells: IKZF3. The conditions noted are these: MM1S cells, 0.3, 3 and 30 μM, 6 hours.
The target in another test is ZFP91 (Homo sapiens, UniProt Q96JP5). Put plainly: Selectivity determination by Western Blot assay in MM1S cells: ZFP91. The following applies: MM1S cells, 0.3, 3 and 30 μM, 6 hours. A general note: Immunoblotting shows a protein as a band on a membrane.
Test [3] deals with T1, GSPT1. The test can be described thus: Selectivity determination by Western Blot assay in MM1S cells: GSPT1. The conditions noted are these: MM1S cells, 0.3, 3 and 30 μM, 6 hours.
A further test deals with CK1alpha (Homo sapiens, UniProt P48729). Put plainly: Selectivity determination by Western Blot assay in MM1S cells: CK1alpha. The following applies: MM1S cells, 0.3, 3 and 30 μM, 6 hours.
In a further test the target is IKZF1 (Homo sapiens, UniProt Q13422). The test can be described thus: Selectivity determination by Western Blot assay in MM1S cells: IKZF1. The following applies: MM1S cells, 0.3, 3 and 30 μM, 6 hours.

As usually defined, the DC50 is the concentration at which degradation of the target reaches its halfway point. In the case of `Cc1c(Cl)cc(NC(=O)NCc2ccc3c(c2)C(=O)N(C2CCC(=O)NC2=O)C3)cc1CC1COCCN1C` (stereo not drawn), the DC50 on GSPT1 [1] was less than 100 nM.
As usually defined, the IC50 is the concentration needed to halve the response being measured. For the molecule `Cc1c(Cl)cc(NC(=O)NCc2ccc3c(c2)C(=O)N(C2CCC(=O)NC2=O)C3)cc1CN1CC2CC1CO2` (stereo not drawn), the IC50 in test [2] stood at 1020 nM. For the same molecule, at GSPT1 [1], the DC50 was less than 100 nM.
In the case of `Cc1c(Cl)cc(NC(=O)NCc2ccc3c(c2)C(=O)N(C2CCC(=O)NC2=O)C3)cc1CN1C2CCC1COC2` (stereo not drawn), at IKZF3, the IKZF3 degradation code entry is on record as “B (B represents trace degradation at 30 μM (below 20%))”. For the same molecule, on ZFP91, the ZFP91 degradation code result is reported as “A”. Besides, the GSPT1 degradation code entry on GSPT1 [3] is “F (F represents degradation at 0.3 μM (>90%))”. Besides, the CK1alpha degradation code entry on CK1alpha is reported as “A”. For the same molecule, the IKZF1 degradation code entry on IKZF1 is recorded as “C (C represents weak degradation at 30 μM (below 50%))”. Further, the DC50 at GSPT1 [1] was less than 100 nM.
